The list shows a part of the results, in another mix than the full data. Activity calls are given as the source filed them.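 How the source made its calls: active means mean inhibition over replicate wells above about 20% (limit read from the data); inactive means the rest.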

Chains of the proteins cited; added tags and fusions are not shown.
UniProt Q9Y5K5, whole entry: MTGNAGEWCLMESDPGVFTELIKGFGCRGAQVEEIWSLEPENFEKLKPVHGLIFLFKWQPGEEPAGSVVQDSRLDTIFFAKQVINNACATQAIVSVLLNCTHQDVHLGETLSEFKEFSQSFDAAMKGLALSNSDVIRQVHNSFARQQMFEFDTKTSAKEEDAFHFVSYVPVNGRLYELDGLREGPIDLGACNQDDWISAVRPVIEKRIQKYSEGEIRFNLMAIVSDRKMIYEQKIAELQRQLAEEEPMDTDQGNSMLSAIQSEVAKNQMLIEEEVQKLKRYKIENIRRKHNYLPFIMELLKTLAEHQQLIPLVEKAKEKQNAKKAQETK

Broadly, the inhibition is the drop in the measured response relative to a control, in per cent.

The assay concerns the target Ubiquitin carboxyl-terminal hydrolase isozyme L5 (Homo sapiens) (UniProt Q9Y5K5). The assay can be described thus: proteasome-bound UCH37 DUB activity blockers – biochemical, Ub-AMC cleavage, fluorescence, primary screen (AID 588478).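 Further: 0% = compound-free wells with enzyme and 100% = wells lacking proteasome.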 Conditions: purified proteasome/UCH37, Ub-AMC cleavage fluorescence; hits give high values; concentration not given here. The gist of the method: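 Material: Human UCH37 enzyme supplied as purified proteasome complex | Schedule: 30 min compound-proteasome preincubation then 25 min substrate reaction, room temperature | Detection: AMC fluorescence from Ub-AMC cleavage, excitation 355 nm, emission 460 nm | Benchmarks: Wells without proteasome as full block, compound-free enzyme plus substrate as uninhibited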
As to `O=[N+]([O-])c1cccc(NC2=NCC(CBr)S2)c1` (stereo not given), the inhibition was inactive: 2.47%.

In the case of `O=[N+]([O-])c1ncn(CCn2ncnc2[N+](=O)[O-])n1`, the inhibition is inactive: 2.23%.

Consider `CC(C)(C)C(=O)NC(Sc1ccncn1)C(Cl)(Cl)Cl` (stereo not given), for which the inhibition is inactive: 3.01%.

In the case of `CP(=O)(OC12CC3CC(CC(C3)C1)C2)OC12CC3CC(CC(C3)C1)C2`, the inhibition is inactive: 2.9%.

Turning to `O=C(Nc1cc([As](=O)(O)O)ccc1O)c1ccccc1`, the inhibition was inactive: 2.3%.

For `O=P1(N(CCCl)CCCl)OCCCS1` (stereo not given), the inhibition was inactive: -0.0903%.

`Nc1ccc2c(ccc3cccnc32)n1.O=[N+]([O-])c1cc([N+](=O)[O-])c(O)c([N+](=O)[O-])c1`: the inhibition is inactive: -42%.

Regarding `CC1CCN(C(=O)Oc2c(Cl)cc(Cl)c3cccnc23)CC1`, the inhibition is inactive: -0.956%.

With `CN(C)C(=O)c1c([N+](=O)[O-])cc([N+](=O)[O-])cc1[N+](=O)[O-]`, the inhibition is inactive: 10.9%.

On to `CP(=O)(Nc1ccc(Cl)cc1)Oc1ccc(F)cc1` (stereo not given), for which the inhibition is inactive: 3.58%.

Turning to `Nc1ccc([As](=O)(O)c2ccc(N)cc2)cc1`, the inhibition is inactive: 2.74%.

Take `CC(C)(C)c1ccc(OP(C)(=O)O)cc1`: the inhibition is inactive: -0.0765%.

Take `COc1ccccc1OP(C)(=O)Nc1ccccc1Br` (stereo not given): the inhibition was inactive: 3.44%.

In the case of `C[N+]1=C2C=CC=CC=C2SC12C([N+](=O)[O-])=CC([N+](=O)[O-])=C[C-]2[N+](=O)[O-]` (stereo not given), the inhibition is inactive: 9.02%.

Turning to `Cc1ccc(NP(=O)(Oc2ccccc2)Oc2ccccc2)nc1`, the inhibition is inactive: -1.7%.

With `CP(=O)(Oc1ccccc1)N1CCOC1=O` (stereo not given), the inhibition is inactive: 2.35%.

As for `O=[N+]([O-])c1cc([N+](=O)[O-])c(CCNc2ccccc2)c([N+](=O)[O-])c1`, the inhibition was inactive: 3.66%.

Turning to `CCc1nc2c(n1)c1c(non1O)c1c2no[n+]1[O-]`, the inhibition was inactive: 11.8%.

On to `CCc1ccc(OP(C)(=O)Nc2cccnc2)cc1` (stereo not given), for which the inhibition is inactive: 1.88%.

Turning to `COc1ccccc1OP(C)(=O)Nc1c(C)n(C)n(-c2ccccc2)c1=O` (stereo not given), the inhibition was inactive: 0.32%.

For the molecule `CC(=O)N1C2C3N(C(C)=O)C1C1N(C(C)=O)C(C(N1C(C)=O)N3C(C)=O)N2C(C)=O`, the inhibition is inactive: 1.37%.

As to `O=[N+]([O-])c1cccc2n[nH]nc12`, the inhibition is inactive: 5.67%.

On to `O=C(OCCCN1CCCC1)C(O)(c1ccccc1)C1CCCCC1` (stereo not given), for which the inhibition is inactive: 2.63%.

Take `CCN(CC)CC(O)COC(=O)C(O)(c1ccccc1)C1CCCCC1` (stereo not given): the inhibition was inactive: -0.547%.

For `COc1ccc(C2=NCC(CBr)S2)cc1` (stereo not given), the inhibition was inactive: 6.25%.

As for `COc1ccc(OP(C)(=O)Nc2ccc(Br)cc2)cc1` (stereo not given), the inhibition is inactive: 4.56%.

As for `CCC(C)N(CC(C)C)C(=S)SC(NC(C)=O)C(Cl)(Cl)Cl` (stereo not given), the inhibition is inactive: 5.34%.

As for `CP(=O)(Nc1ccccn1)Oc1ccc(Cl)cc1` (stereo not given), the inhibition is inactive: -0.356%.

`O=C(OC1CN2CCC1CC2)c1cccc([N+](=O)[O-])c1` (stereo not given): the inhibition is inactive: 3.54%.

Turning to `CCOP(C)(=S)SCC(=O)NC(C)C(=O)O` (stereo not given), the inhibition is inactive: 1.3%.

Consider `O=[N+]([O-])c1cc([N+](=O)[O-])c(O)c([N+](=O)[O-])c1.c1ccc(Oc2ccncc2)cc1`, for which the inhibition is inactive: 16.9%.

`CCOC(=O)c1ccc(NC(=O)C(C)(CCl)SC)cc1` (stereo not given): the inhibition is inactive: 2.99%.

As to `CCOC(=O)c1ccc(NP(C)(=O)Oc2ccc(OC)cc2)cc1` (stereo not given), the inhibition was inactive: 5.31%.

As to `CCc1ccc(OP(C)(=O)N2CCN(c3ccc([N+](=O)[O-])cc3)CC2)cc1` (stereo not given), the inhibition is inactive: 8.19%.

Take `CP(=O)(NC(=O)Nc1ccccc1)Oc1ccccc1` (stereo not given): the inhibition was inactive: 0.467%.

As for `O=C(COc1ccccc1)OC1CN2CCC1CC2` (stereo not given), the inhibition is inactive: 4.19%.

In the case of `Cc1cc(C)cc(OP(C)(=O)Nc2ccc(SC(F)(F)F)cc2)c1` (stereo not given), the inhibition is inactive: 5.51%.

Turning to `O=C(Nc1ccncc1[N+](=O)[O-])c1ccc([N+](=O)[O-])cc1[N+](=O)[O-]`, the inhibition is inactive: 3.73%.

Regarding `CP(=O)(Nc1ccc(SC(F)(F)F)cc1)Oc1ccc(Cl)cc1` (stereo not given), the inhibition was inactive: 3.16%.

With `Cc1cccc(C)c1OP(C)(=O)Nc1ccc(SC(F)(F)F)cc1` (stereo not given), the inhibition is inactive: 2.15%.

Consider `COP1(=S)c2c(C)nn(CCC#N)c2N=C(c2ccc(F)cc2)N1C` (stereo not given), for which the inhibition was inactive: 1.15%.

Take `CP(=O)(Oc1ccccc1)OC(c1ccccc1)C(F)(F)F` (stereo not given): the inhibition is inactive: 1.44%.

For the molecule `Cc1cc(SC(NC=O)C(Cl)(Cl)Cl)ncn1` (stereo not given), the inhibition is inactive: -0.849%.

As for `O=P(Nc1ccccn1)(c1cccc2ccccc12)c1cccc2ccccc12`, the inhibition is inactive: 1.77%.

For `COc1ccccc1OP(C)(=O)Nc1ccccc1` (stereo not given), the inhibition is inactive: 0.604%.

On to `CP(=O)(Nc1ccccc1Br)Oc1ccccc1` (stereo not given), for which the inhibition is inactive: 1.8%.

As for `O=[N+]([O-])c1ccc(Nc2ccc(Oc3ccc([N+](=O)[O-])cc3[N+](=O)[O-])cc2)c([N+](=O)[O-])c1`, the inhibition is inactive: 7.63%.

As to `CP(=S)(Nn1cnnc1)Oc1ccccc1` (stereo not given), the inhibition is inactive: 3.85%.

As for `CCOC(=O)Nc1cccc([As](=O)(O)O)c1`, the inhibition is inactive: 1.37%.

On to `CCCCOc1ccc(C(=O)NCC2(N3CCCCC3)CCCCC2)cc1OC`, for which the inhibition is inactive: 1.38%.

In the case of `COc1ccc(NC(=NP(=O)(N2CCOCC2)N2CCOCC2)N2CCOCC2)cc1`, the inhibition was inactive: 0.402%.

Regarding `Cc1cc(SC(NC(=O)c2ccccc2)C(Cl)(Cl)Cl)nc(C(C)C)n1` (stereo not given), the inhibition is inactive: -4.85%.

Turning to `CCOC(=O)Nc1ccc([As](=O)(O)O)c(O)c1`, the inhibition is inactive: 3.68%.

In the case of `CC1CCNP(=O)(N(CCCl)CCCl)O1` (stereo not given), the inhibition is inactive: 3.98%.

As for `CCN(CC)C(=S)SC(NC=O)C(Cl)(Cl)Cl` (stereo not given), the inhibition is inactive: -3.8%.

In the case of `O=C(OC1CN2CCC1CC2)c1cccc2[nH]cnc12` (stereo not given), the inhibition is inactive: 1.09%.

Turning to `CC(C)NC(=O)NP(=O)(Oc1ccccc1)Oc1ccccc1`, the inhibition was inactive: 1.26%.

`COc1ccccc1OP(C)(=O)Nc1cc(Cl)ccc1C` (stereo not given): the inhibition is inactive: 4.86%.

Consider `O=[N+]([O-])c1cc([N+](=O)[O-])c(-c2ccn[nH]2)s1`, for which the inhibition is inactive: 8.72%.

As to `COc1ccc(OP(C)(=O)Nc2cccc(F)c2)cc1` (stereo not given), the inhibition was inactive: 3.76%.

In the case of `Cc1cc(C)cc(OP(C)(N)=O)c1` (stereo not given), the inhibition was inactive: -0.253%.

As to `CCOC(=O)c1ccc(NP(C)(=O)Oc2ccccc2)cc1` (stereo not given), the inhibition is inactive: 1.78%.

Turning to `ClCCSc1nnc(-c2cccnc2)o1`, the inhibition is inactive: 5.39%.

As for `COc1ccccc1OP(C)(=O)Nc1ccc(C)cc1` (stereo not given), the inhibition was inactive: -1.68%.

Regarding `Cc1ccc(NP(C)(=O)Oc2ccccc2)c(C)c1` (stereo not given), the inhibition is inactive: 0.0842%.

Consider `CC(C)c1ccc(OP(=O)(Nc2ccccn2)Oc2ccccc2F)cc1` (stereo not given), for which the inhibition is inactive: 8.59%.

For the molecule `CC(C)(C)c1ccc(OP(C)(=O)Nc2ccc(SC(F)(F)F)cc2)cc1` (stereo not given), the inhibition was inactive: 4.4%.

Consider `Cc1ccc(OP(=O)(Nc2ccc([N+](=O)[O-])cn2)Oc2ccc(C)cc2)cc1`, for which the inhibition is inactive: 3.78%.

Take `Cc1cccc(C)c1OP(C)(N)=O` (stereo not given): the inhibition was inactive: 0.0345%.

As to `Cc1ccc2nc3c(c(C)c2c1)CC(C(Cl)Cl)S3` (stereo not given), the inhibition is inactive: 1.63%.

Take `O=[N+]([O-])c1ccc2c(c1)C=Nc1ccccc1O2`: the inhibition is inactive: 5.92%.

`CCCC(C)(O)C1CC23C=CC1(OC)C1Oc4c(O)ccc5c4[C@@]12CCN(C)[C@@H]3C5` (stereo not given in full): the inhibition was inactive: 1.32%.

With `O=[N+]([O-])c1cc([N+](=O)[O-])c(Nc2cccnc2)c([N+](=O)[O-])c1`, the inhibition is inactive: 3.57%.

As for `O=[As](O)(c1ccc(O)cc1)c1ccccc1O`, the inhibition was inactive: 1.07%.

As for `C[As](=O)(O)c1cccc(C(=O)O)c1`, the inhibition was inactive: 1.92%.

In the case of `COc1cc(C(=O)NCC2(N3CCOCC3)CCCCC2)ccc1OCC(C)C`, the inhibition was inactive: 0.609%.

As to `CCC(CO)(C(=O)OC1CN2CCC1CC2)c1ccccc1` (stereo not given), the inhibition is inactive: 4.13%.

With `O=P1(N(CCCl)CCCl)Nc2ccccc2N1`, the inhibition is inactive: 1.64%.

For the molecule `COc1ccc2nc(NP(=O)(c3ccccc3)c3ccccc3)sc2c1`, the inhibition was inactive: 2.32%.

With `COc1cc(I)ccc1[As](=O)(O)O`, the inhibition was inactive: -0.0878%.

For `Cc1c2c(nc3ccccc13)SC(C(Cl)Cl)C2` (stereo not given), the inhibition is inactive: 4.27%.

As for `O=C(OC1CN2CCC1CC2)C12CC3CC(CC(C3)C1)C2` (stereo not given), the inhibition was inactive: 0.711%.

For the molecule `Cc1cc(=O)[nH]c(N[N+](=O)[O-])n1`, the inhibition was inactive: -0.81%.

For `CCN(CC)CCCOC(=O)C(O)(c1ccccc1)c1ccccc1`, the inhibition is inactive: 3.71%.

On to `CCOP(=O)(Nc1cccc2ccccc12)OCC`, for which the inhibition was inactive: 0.117%.

Turning to `CP(=O)(Nc1cccc(Br)c1)Oc1ccccc1` (stereo not given), the inhibition is inactive: 1.33%.

For the molecule `Cc1cc(C)cc(OP(C)(=O)Nc2ccccn2)c1` (stereo not given), the inhibition was inactive: -0.718%.

For `Cc1ccc(NCCc2c([N+](=O)[O-])cc([N+](=O)[O-])cc2[N+](=O)[O-])cc1`, the inhibition is inactive: 3.57%.

With `CCCOP(=S)(Nc1nc(N)cc(=O)[nH]1)OCCC`, the inhibition was inactive: 2.07%.

For the molecule `Cc1ccc(C)c(NP(C)(=O)Oc2ccccc2)c1` (stereo not given), the inhibition was inactive: 2.15%.

As to `O=[As](O)(c1cccc(O)c1)c1cccc(O)c1`, the inhibition is inactive: -1.13%.

Take `Cc1cccc(OCC(=O)OC2CN3CCC2CC3)c1` (stereo not given): the inhibition is inactive: -0.706%.

Regarding `Cc1cc(C)cc(OP(C)(=O)Nc2ccc(C)cc2C)c1` (stereo not given), the inhibition is inactive: 0.46%.

In the case of `CCOC(=O)c1ccc(NP(C)(=O)Oc2cc(C)cc(C)c2)cc1` (stereo not given), the inhibition was inactive: 0.845%.

On to `O=C(OC1CN2CCC1CC2)c1ccc(Cl)cc1` (stereo not given), for which the inhibition is inactive: 4.46%.

As to `COc1cc(C(=O)NCC2(N3CCOCC3)CCCCC2)cc(Cl)c1OC(C)C`, the inhibition was inactive: 0.756%.

For `O=[As](O)(O)c1cccnc1`, the inhibition is inactive: 2.35%.

With `COc1ccccc1OP(C)(=O)Nc1cccc(Br)c1` (stereo not given), the inhibition was inactive: 3.91%.

Turning to `CS(=O)(=O)c1ccc(Cl)c(NC(=O)COC(=O)C(O)(c2ccccc2)c2ccccc2)c1`, the inhibition was inactive: 3.46%.

For the molecule `N#CCCN(C(=O)COC(=O)C(O)(c1ccccc1)c1ccccc1)c1ccc(F)cc1`, the inhibition is inactive: -0.36%.
